{"source": "patent US4925968A", "about": "“N-acyl-N-naphthoylglycines as aldose reductase inhibitors” (American Home Products Corporation, priority 1989, dated 1990)", "test_system": "aldose reductase", "assay": "galactitol (dulcitol) accumulation in lens, sciatic nerve and diaphragm of galactosemic rats", "format": "in vivo, rat (Sprague-Dawley, male)", "details": "51 mg/kg, 4 days", "excerpt": "Such experiments are exemplified hereinbelow after the listing of the following general comments pertaining to these experiments: (a) Four or more groups of six male rats, 50-70 g, Sprague-Dawley strain, were used. The first group, the control group, was fed a mixture of laboratory chow (rodent Laboratory Chow, Purina) and glucose at 20% (w/w %) concentration. […] The test compound was either admixed to the diet or administered by gavage. In experiments involving compound administration in the diet, the average dose administered was calculated from the actual food intake of the animals in each group. The concentration of galactose in the diet of the treated groups was the same as that for the untreated galactosemic group. (b) After four days, the animals were killed by decapitation. The eyeballs were removed and punctured with a razor blade; the freed lenses were rolled gently on filter paper and weighed. The sciatic nerves were dissected as completely as possible and weighed. Both tissues when frozen can be kept up to two weeks before being analyzed for galactitol. […] Only two minor reagent changes were made: (a) The rinsing mixture was an aqueous 5% (w/v) trichloroacetic acid solution and (b) the stock solution was prepared by dissolving 25 mg of dulcitol in 100 mL of an aqueous trichloroacetic acid solution. […]"}
{"smiles": "COC(=O)N(CC(=O)O)C(=S)c1cccc2c(C(F)(F)F)c(OC)ccc12", "note": "[Example 18a, N-[[6-Methoxy-5-(trifluoromethyl)-1-naphthalenyl]thioxmethyl]-N-[(methoxy)carbonyl]glycine]", "values": [{"measurement": "% Lowering dulcitol accumulation IN VIVO, L", "result": "N.S."}]}
